Values quoted from earlier work as cited in patent US20130079342A1, “HETEROCYCLIC COMPOUNDS AND THEIR USES” (priority 2011, published 2013).

Protein sequences, listed by entry. Tags and fused reporters are not part of them.
UniProt P42338, whole entry, species assumed: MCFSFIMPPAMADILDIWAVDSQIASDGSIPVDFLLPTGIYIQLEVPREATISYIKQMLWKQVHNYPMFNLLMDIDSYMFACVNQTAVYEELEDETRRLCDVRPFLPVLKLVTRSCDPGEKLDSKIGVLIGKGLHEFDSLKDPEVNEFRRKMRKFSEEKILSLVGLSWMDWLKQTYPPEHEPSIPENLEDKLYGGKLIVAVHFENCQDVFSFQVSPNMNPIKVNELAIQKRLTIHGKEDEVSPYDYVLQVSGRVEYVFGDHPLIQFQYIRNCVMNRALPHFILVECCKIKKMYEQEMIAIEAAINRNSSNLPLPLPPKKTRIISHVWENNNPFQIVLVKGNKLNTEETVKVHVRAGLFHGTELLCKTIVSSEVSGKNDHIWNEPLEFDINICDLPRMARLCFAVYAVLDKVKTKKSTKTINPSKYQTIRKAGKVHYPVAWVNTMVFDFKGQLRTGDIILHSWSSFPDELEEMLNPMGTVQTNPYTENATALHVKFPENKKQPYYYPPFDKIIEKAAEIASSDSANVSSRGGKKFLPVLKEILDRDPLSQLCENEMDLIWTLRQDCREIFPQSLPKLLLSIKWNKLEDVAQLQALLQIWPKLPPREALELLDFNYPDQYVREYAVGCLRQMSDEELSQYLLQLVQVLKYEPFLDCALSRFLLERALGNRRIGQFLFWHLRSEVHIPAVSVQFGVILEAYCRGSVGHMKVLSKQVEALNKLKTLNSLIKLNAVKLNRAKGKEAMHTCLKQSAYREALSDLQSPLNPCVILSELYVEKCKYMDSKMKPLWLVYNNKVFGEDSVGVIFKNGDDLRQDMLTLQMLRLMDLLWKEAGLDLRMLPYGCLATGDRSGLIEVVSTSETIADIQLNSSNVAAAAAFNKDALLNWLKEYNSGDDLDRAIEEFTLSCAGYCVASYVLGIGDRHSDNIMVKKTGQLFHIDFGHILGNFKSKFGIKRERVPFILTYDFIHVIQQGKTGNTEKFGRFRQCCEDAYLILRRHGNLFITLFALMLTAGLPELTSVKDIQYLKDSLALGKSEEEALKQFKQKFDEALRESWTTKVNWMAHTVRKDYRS

Target: p110β (Homo sapiens, UniProt P42338)
Details: quantity not given; read-out: potency on beta

IC50: 7 nM
Compound: Cc1cc(C(C)Nc2ccccc2)c2nc(N3CCOCC3)cc(=O)n2c1 (stereo not shown) [TGX-221]
